# The list shows a part of the results, in another mix than the full data. Calls of active or inactive are those of the source. How the source made its calls: active means hit-call score of the fitted dose curve at least 0.9, where 1 is the maximum; inactive means score below 0.9.
# Assay: CCTE_Mundy_HCI_iCellGABA_NOG_NeuronCount: CCTE's Neurite Outgrowth Assay in iCellGABA cells for Neuron Count, Mundy Lab
# Protocol: CCTE_Mundy_HCI_iCellGABA_NOG is a multiplexed, cell-based-readout assay that uses iCell GABANeurons from FUJIFILM Cellular Dynamics, Inc. (FCDI), human GABAergic enriched neurons derived from induced pluripotent stem (iPS) cells, with measurements taken at 50.33 hours after chemical dosing in a microplate: 96-well plate.CCTE_Mundy_HCI_iCellGABA_NOG_NeuronCount is one of four components of the CCTE_Mundy_HCI_iCellGABA_NOG assay. It measures cell viability related to number of neurons using High Content Imaging of fluorescently labelled markers.Data from the assay component CCTE_Mundy_HCI_iCellGABA_NOG_NeuronCount was analyzed at the endpoint CCTE_Mundy_HCI_iCellGABA_NOG_NeuronCount in the positive analysis fitting direction relative to DMSO as the negative control and baseline of activity. Using a type of viability reporter, loss-of-signal activity can be used to understand developmental effects.
# Exposure starts 2 hours post-plating by adding 10 ul of the working solution to 90 ul of media in the wells for a 1/10 dilution. […] A Cellomics ArrayScan VTi HCS Reader is used for automated image acquisition and analysis of neurite outgrowth.
row,Structure (SMILES),AC50
1,CC(C)OP(=S)(OC(C)C)SCCNS(=O)(=O)c1ccccc1,active: 12.9 µM
